Experimental data from US7732568B2, “Methods for preventing and treating Alzheimer's disease” (AFFIRIS Forschungs-und Entwicklungs GmbH, priority 2003, dated 2010).

System: biotinylated monoclonal antibody specific for DAEFRH (natural N-terminal Aβ42 sequence)
Experiment: Inhibition assay for additional mimotopes (competition ELISA), Example 4 (FIGS. 4 and 5)
Assay type: binding, mice
Procedure: FIGS. 4 and 5 describe the results of inhibition assays performed with mimotope peptides included in and obtained from the 5 libraries (as described). The mimotope peptides compete with the original epitope for recognition by the monoclonal antibody. Original epitope and mimotope peptides contain an additional C at the C-terminus (position 7) for coupling to a protein carrier (if desired).
After blocking with PBS/BSA 1% (200 μl/well, 12 h, 4° C.), the plates are washed 3× times with PBS/Tween. Then, biotinylated monoclonal antibody (1:2000, 50 μl/well) and peptides (50 μl/well) at different concentrations are added for 20 min. at 37° C. The plates are washed 3× times with PBS/Tween and are incubated with horseradish peroxidase (HRP)-labeled streptavidin (100 μl/well, 30 min, RT). The plates are washed 5× times with PBS/Tween and are incubated with ABTS H2O2 (0.1% w/v, 10 to 45 min) and the reaction is stopped with citric acid followed by photometric evaluation (wavelength 405 nm).

inhibition of binding of the monoclonal antibody to the original epitope (in words) (FIGS. 4 and 5): block epitope recognition
Structure (SMILES): CC(C)C[C@H](NC(=O)[C@H](CCC(=O)O)NC(=O)[C@H](CCCCN)NC(=O)[C@@H](N)CC(=O)O)C(=O)N[C@@H](CCCNC(=N)N)C(=O)N[C@@H](CS)C(=O)O [Peptide 1238, DKELR]
Inhibitory capacity of mimotopes (Table 2) (summary grade: strong, intermediate, weak, none): strong
